Measured values published in ChEMBL document CHEMBL5154811, “Discovery of SPH5030, a Selective, Potent, and Irreversible Tyrosine Kinase Inhibitor for HER2-Amplified and HER2-Mutant Cancer Treatment” (J Med Chem, 2022).
Values belong to the compound of their own block, whether it stands above or below them.

The chains behind the UniProt entries cited, without tags or fusion partners.
UniProt P00533, whole entry: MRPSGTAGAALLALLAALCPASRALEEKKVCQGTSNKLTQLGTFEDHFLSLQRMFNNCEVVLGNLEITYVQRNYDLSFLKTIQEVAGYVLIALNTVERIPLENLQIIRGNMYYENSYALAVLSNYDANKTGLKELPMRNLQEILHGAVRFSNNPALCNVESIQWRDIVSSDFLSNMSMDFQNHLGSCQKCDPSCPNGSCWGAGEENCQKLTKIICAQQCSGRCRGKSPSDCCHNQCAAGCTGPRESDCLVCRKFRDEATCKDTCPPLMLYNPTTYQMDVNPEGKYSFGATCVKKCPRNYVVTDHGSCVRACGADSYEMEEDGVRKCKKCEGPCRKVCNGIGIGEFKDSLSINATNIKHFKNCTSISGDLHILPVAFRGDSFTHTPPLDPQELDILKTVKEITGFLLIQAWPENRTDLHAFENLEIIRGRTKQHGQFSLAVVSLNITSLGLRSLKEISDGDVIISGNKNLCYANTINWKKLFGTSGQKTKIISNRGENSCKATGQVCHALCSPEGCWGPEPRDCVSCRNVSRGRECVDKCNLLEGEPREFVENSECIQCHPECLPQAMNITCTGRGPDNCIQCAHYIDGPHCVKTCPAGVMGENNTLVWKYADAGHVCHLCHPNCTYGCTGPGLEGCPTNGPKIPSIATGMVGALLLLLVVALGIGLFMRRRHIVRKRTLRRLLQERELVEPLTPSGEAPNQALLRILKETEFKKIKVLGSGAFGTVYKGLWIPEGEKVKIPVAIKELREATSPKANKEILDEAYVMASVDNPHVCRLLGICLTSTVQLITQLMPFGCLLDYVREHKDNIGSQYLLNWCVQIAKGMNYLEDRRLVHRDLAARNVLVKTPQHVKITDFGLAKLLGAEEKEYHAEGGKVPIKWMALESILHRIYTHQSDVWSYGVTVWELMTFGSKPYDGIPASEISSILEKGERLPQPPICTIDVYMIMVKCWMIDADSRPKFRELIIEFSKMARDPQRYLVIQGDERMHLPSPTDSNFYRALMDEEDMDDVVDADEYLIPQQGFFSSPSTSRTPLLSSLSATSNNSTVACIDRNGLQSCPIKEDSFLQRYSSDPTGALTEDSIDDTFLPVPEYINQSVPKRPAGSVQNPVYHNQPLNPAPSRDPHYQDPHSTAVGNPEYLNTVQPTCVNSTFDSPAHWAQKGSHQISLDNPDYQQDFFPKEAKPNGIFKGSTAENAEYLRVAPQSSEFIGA

Assays:
NCI-N87 = assay: Antiproliferative activity against human NCI-N87 cells assessed as inhibition of cell growth incubated for 72 hrs by Celltiter-Glo assay; assay type: functional, cell-based; conditions: NCI-N87, 72 h
[1] = Metabolic stability in human liver microsomes assessed as half life at 1 uM preincubated for 5 mins followed by NADPH addition by LC-MS/MS analysis; assay type: ADME, Microsome
[2] = Metabolic stability in human liver microsomes assessed as intrinsic clearance at 1 uM preincubated for 5 mins followed by NADPH addition by LC-MS/MS analysis; assay type: ADME, Microsome; conditions: read-out: CLH
[3] = biological target: T1, Epidermal growth factor receptor (Homo sapiens, UniProt P00533); assay: Inhibition of wild type human N-terminal GST tagged EGFR (669 to 1210 residues) expressed in Sf21 insect cells incubated for 30 mins in presence of ATP by HTRF analysis
[4] = biological target: T1, Epidermal growth factor receptor; assay: Inhibition of EGFR (unknown origin)

SMILES: CCOc1cc2ncnc(Nc3ccc(Oc4cc5nncn5cn4)c(C)c3)c2cc1NC(=O)/C(F)=C\[C@H]1CCCN1C
IC50 (NCI-N87): 1.08 nM

half-life at 1 µM [1]: 1.96 h
microsomal CLint at 1 µM [2]: 11.8 µL/min/mg
SMILES: CCOc1cc2ncnc(Nc3ccc(Oc4cc5nncn5cn4)c(C)c3)c2cc1NC(=O)/C(F)=C\[C@@H]1CCCN1C

IC50 [3]: 0.98 nM
IC50 [4]: 0.48 nmol
SMILES: CCOc1cc2ncc(C#N)c(Nc3ccc(OCc4ccccn4)c(Cl)c3)c2cc1NC(=O)/C=C/[C@H]1CCCN1C [PYROTINIB]
